Source: PubChem BioAssay AID485346 (Sanford-Burnham Center for Chemical Genomics, 2010)
This is a selection; strong and weak results do not stand in their true shares. Activity calls are given as the source filed them.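 The calls were made as follows: active = inhibition of at least 50% at 8 µM in the primary screen; inactive = the rest.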

The chains behind the UniProt entries cited, without tags or fusion partners. Where a name states a change or a piece, a line headed by the entry shows the natural chain unless it says otherwise.
UniProt O15151: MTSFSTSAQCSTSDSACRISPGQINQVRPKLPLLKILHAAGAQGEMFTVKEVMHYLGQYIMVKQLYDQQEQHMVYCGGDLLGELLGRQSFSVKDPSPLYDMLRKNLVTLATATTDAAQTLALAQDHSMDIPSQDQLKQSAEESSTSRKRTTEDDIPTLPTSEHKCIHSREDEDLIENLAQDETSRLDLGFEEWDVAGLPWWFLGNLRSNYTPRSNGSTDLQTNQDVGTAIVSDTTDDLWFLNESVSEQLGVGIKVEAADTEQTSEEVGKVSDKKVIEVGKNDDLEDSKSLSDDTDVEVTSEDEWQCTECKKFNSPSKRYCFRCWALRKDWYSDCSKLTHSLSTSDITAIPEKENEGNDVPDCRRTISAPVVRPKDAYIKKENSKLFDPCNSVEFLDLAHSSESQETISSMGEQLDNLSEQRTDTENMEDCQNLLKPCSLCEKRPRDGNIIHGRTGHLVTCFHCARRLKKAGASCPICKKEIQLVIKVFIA
UniProt Q00987, whole entry, looked up: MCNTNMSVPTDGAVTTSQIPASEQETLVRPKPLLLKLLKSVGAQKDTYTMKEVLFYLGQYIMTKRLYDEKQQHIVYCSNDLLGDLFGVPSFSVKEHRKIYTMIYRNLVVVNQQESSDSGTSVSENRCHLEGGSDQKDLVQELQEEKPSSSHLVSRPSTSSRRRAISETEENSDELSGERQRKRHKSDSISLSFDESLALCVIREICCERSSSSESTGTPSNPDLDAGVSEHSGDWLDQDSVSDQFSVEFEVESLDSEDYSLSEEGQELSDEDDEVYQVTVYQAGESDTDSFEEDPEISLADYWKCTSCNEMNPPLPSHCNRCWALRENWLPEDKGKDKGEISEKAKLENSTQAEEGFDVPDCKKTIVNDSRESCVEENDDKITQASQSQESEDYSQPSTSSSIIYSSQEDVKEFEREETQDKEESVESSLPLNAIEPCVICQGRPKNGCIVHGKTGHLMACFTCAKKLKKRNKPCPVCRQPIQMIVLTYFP

These molecules were tested against Protein Mdm4 (Homo sapiens) + E3 ubiquitin-protein ligase Mdm2 (Homo sapiens) (UniProt O15151+Q00987) (assay: inhibitors of human Mdm2-MdmX association, primary screen, cell-based, luminescence, split luciferase, SaOS-2, uHTS (AID 485346)). Conditions: SaOS-2 split-luciferase Mdm2/MdmX complementation, at 8 µM, active compounds read high.
In the case of `CCOP(=O)(Nc1cccc2ccccc12)OCC`, the inhibition is reported as inactive: -2.28%.
`COc1cc(C2NCCC3(OCCO3)C2(C)C)cc(OC)c1OC` (stereo unspecified) was tested, and the inhibition was inactive: 13.6%.
With `Cc1ccc(NCCc2c([N+](=O)[O-])cc([N+](=O)[O-])cc2[N+](=O)[O-])cc1` the inhibition was inactive: 10.6%.
For `CCCOP(=S)(Nc1nc(N)cc(=O)[nH]1)OCCC`, the inhibition was inactive: 12.6%.
`Cc1cccc(OCC(=O)OC2CN3CCC2CC3)c1` (stereo unspecified) was tested, and the inhibition was inactive: 13.2%.
`O=[As](O)(c1cccc(O)c1)c1cccc(O)c1` was tested, and the inhibition was inactive: -6.09%.
In the case of `O=C(OC1CN2CCC1CC2)c1ccc(Cl)cc1` (stereo unspecified), the inhibition is reported as inactive: 19.9%.
With `CS(=O)(=O)c1ccc(Cl)c(NC(=O)COC(=O)C(O)(c2ccccc2)c2ccccc2)c1` the inhibition was inactive: 22%.
With `O=[As](O)(O)c1cccnc1` the inhibition was inactive: -12.3%.
With `COc1cc(C(=O)NCC2(N3CCOCC3)CCCCC2)cc(Cl)c1OC(C)C` the inhibition was inactive: -6.88%.
In the case of `CC(=O)Nc1ccc(Oc2c([N+](=O)[O-])cc([N+](=O)[O-])cc2[N+](=O)[O-])cc1`, the inhibition is reported as inactive: 18.4%.
For `CC(=O)Nc1ccc([As](=O)(O)O)c(O)c1`, the inhibition was inactive: -4.3%.
`C[C@H]1OP(=O)(Oc2ccccc2)C[C@@H]2O[C@@H]21` (stereo partly specified) was tested, and the inhibition was inactive: 7.99%.
`C[C@@H]1C=CCP(=O)(Oc2ccccc2)O1` (stereo partly specified) was tested, and the inhibition was inactive: 1.43%.
`Cc1ccccc1CN(C)C(=O)COC(=O)C(O)(c1ccccc1)c1ccccc1` was tested, and the inhibition was inactive: -10.1%.
For `CC(=O)c1ccc(N2CC2c2ccncc2)cc1` (stereo unspecified), the inhibition was inactive: 0.744%.
In the case of `CC(C)(C)C(=O)NC(Sc1ccccc1)C(Cl)(Cl)Cl` (stereo unspecified), the inhibition is reported as inactive: 10.3%.
In the case of `CCOc1ccc(C2=NCC(CBr)S2)cc1` (stereo unspecified), the inhibition is reported as inactive: -18%.
For `O=P1(Nc2nc3ccc(Cl)cc3s2)COc2ccccc2O1` (stereo unspecified), the inhibition was inactive: 22.7%.
With `CN(C)C(=O)Oc1noc2ccccc12` the inhibition was inactive: 16.7%.
`CC(NC(=O)COC(=O)C(O)(c1ccccc1)c1ccccc1)c1ccccc1` (stereo unspecified) was tested, and the inhibition was inactive: -0.036%.
For `Cc1ccccc1OP(=O)(Nc1ccccn1)Oc1ccccc1C`, the inhibition was inactive: 15.6%.
With `CCC(=O)N1C2C3N(C(=O)CC)C1C1N(C(=O)CC)C(C(N1C(=O)CC)N3C(=O)CC)N2C(=O)CC` the inhibition was inactive: -1.29%.
`O=C(OC1CN2CCC1CC2)c1ccccc1` (stereo unspecified) was tested, and the inhibition was inactive: -5.84%.
In the case of `CC(=O)NC(SC(=S)N(CC(C)C)CC(C)C)C(Cl)(Cl)Cl` (stereo unspecified), the inhibition is reported as inactive: 5.17%.
In the case of `Cc1ccc(OP(=O)(Nc2ccccn2)Oc2ccc(C)cc2)cc1`, the inhibition is reported as inactive: -3.33%.
With `COC(=O)c1cc2c(s1)N=C(c1ccccc1)N(C)P2(=O)N1CCOCC1` (stereo unspecified) the inhibition was inactive: 6.49%.
For `Cc1ccc(NP(=O)(Oc2cccc(C)c2)Oc2cccc(C)c2)nc1`, the inhibition was inactive: 28.2%.
In the case of `CCOC(=O)NC(Sc1ccccc1)C(Cl)(Cl)Cl` (stereo unspecified), the inhibition is reported as inactive: 3.01%.
In the case of `c1ccc(-c2nn[nH]n2)c(-c2nn[nH]n2)c1`, the inhibition is reported as inactive: -12.7%.
With `O=C(NC1CCS(=O)(=O)C1)NP(=S)(Oc1ccccc1)Oc1ccccc1` (stereo unspecified) the inhibition was inactive: 3.17%.
With `CCNC(=S)/N=C(\N)N[N+](=O)[O-]` the inhibition was inactive: -12.4%.
For `O=C(OC1CN2CCC1CC2)c1cccc(Cl)c1` (stereo unspecified), the inhibition was inactive: 3.46%.
In the case of `C(Cc1nn[nH]n1)Cc1nn[nH]n1`, the inhibition is reported as inactive: 2.1%.
For `Nc1ccc([As](=O)(O)c2ccc([N+](=O)[O-])cc2)cc1`, the inhibition was inactive: 10.2%.
For `O=[As](O)(c1ccccc1)c1ccc(O)cc1`, the inhibition was inactive: -1.62%.
For `O=[N+]([O-])c1ncn(CCn2cnc([N+](=O)[O-])n2)n1`, the inhibition was inactive: -29.4%.
In the case of `C[C@H]1OP(=O)(Oc2ccccc2)[C@H](O)[C@H](O)[C@H]1N=[N+]=[N-]` (stereo partly specified), the inhibition is reported as inactive: 13.2%.
With `O=P(Nc1nc2ccccc2s1)(c1ccccc1)c1ccccc1` the inhibition was inactive: -0.597%.
In the case of `CN(C)C1(CNC(=O)c2ccc(Cl)c(S(N)(=O)=O)c2)CCCCC1`, the inhibition is reported as inactive: -16.2%.
For `O=P(Nc1ccccn1)(c1ccc(Br)cc1)c1ccc(Br)cc1`, the inhibition was inactive: -12.5%.
With `c1nnnn1CCn1cnnn1` the inhibition was inactive: 6.05%.
In the case of `O=P(Nc1nccs1)(c1ccccc1)c1ccccc1`, the inhibition is reported as inactive: -5.78%.
`CC(C)C(=O)NC(Sc1ccccc1)C(Cl)(Cl)Cl` (stereo unspecified) was tested, and the inhibition was inactive: 10.3%.
In the case of `CC1CCN(C(=O)Oc2c(Cl)cc(Cl)c3cccnc23)CC1`, the inhibition is reported as inactive: 18.1%.
`CN(C)C(=O)OCCc1n(C)cc[n+]1C` was tested, and the inhibition was inactive: 12.5%.
In the case of `CC(C)=N/N=C(\N)N[N+](=O)[O-]`, the inhibition is reported as inactive: 5.2%.
For `CCN(/C(=N/P(=O)(N1CCOCC1)N1CCOCC1)N1CCOCC1)c1ccc(OC)cc1`, the inhibition was inactive: 15.9%.
In the case of `C[N+]1=C2C=CC=CC=C2SC12C([N+](=O)[O-])=CC([N+](=O)[O-])=C[C-]2[N+](=O)[O-]` (stereo unspecified), the inhibition is reported as active: 97.6%.
With `Nc1ccc([As](=O)(O)c2ccc(N)cc2)cc1` the inhibition was inactive: 7.93%.
In the case of `O=[N+]([O-])c1cc([N+](=O)[O-])c(CCNc2ccccc2)c([N+](=O)[O-])c1`, the inhibition is reported as inactive: 33.7%.
`CCc1nc2c(n1)c1c(non1O)c1c2no[n+]1[O-]` was tested, and the inhibition was inactive: 38%.
`Cc1ccc(NP(=O)(Oc2ccccc2)Oc2ccccc2)nc1` was tested, and the inhibition was inactive: -7.23%.
For `CC(=O)N1C2C3N(C(C)=O)C1C1N(C(C)=O)C(C(N1C(C)=O)N3C(C)=O)N2C(C)=O`, the inhibition was inactive: -19.7%.
In the case of `O=[N+]([O-])c1cccc2n[nH]nc12`, the inhibition is reported as inactive: 22.6%.
With `COc1ccc(C2=NCC(CBr)S2)cc1` (stereo unspecified) the inhibition was inactive: -5.96%.
In the case of `O=[N+]([O-])c1cccc(NC2=NCC(CBr)S2)c1` (stereo unspecified), the inhibition is reported as inactive: 25%.
With `O=[N+]([O-])c1ncn(CCn2ncnc2[N+](=O)[O-])n1` the inhibition was inactive: 12.7%.
`CC(C)(C)C(=O)NC(Sc1ccncn1)C(Cl)(Cl)Cl` (stereo unspecified) was tested, and the inhibition was inactive: 11.1%.
With `O=C(Nc1cc([As](=O)(O)O)ccc1O)c1ccccc1` the inhibition was inactive: 13.8%.
`CCN(N=Nc1nonc1N)c1nonc1N` was tested, and the inhibition was inactive: -14.9%.
In the case of `O=[N+]([O-])c1cc([N+](=O)[O-])c(CCN2CCOCC2)c([N+](=O)[O-])c1`, the inhibition is reported as inactive: 8.17%.
With `CN(C(=O)Cc1ccc(Cl)c(Cl)c1)[C@H]1CCCC[C@@H]1N1CCCC1` the inhibition was inactive: -5.6%.
For `Cc1ccc(NP(=O)(Oc2ccccc2F)Oc2ccccc2F)nc1`, the inhibition was inactive: -11.3%.
In the case of `Cc1cc(SC(NC(=O)c2ccc(F)cc2)C(Cl)(Cl)Cl)ncn1` (stereo unspecified), the inhibition is reported as inactive: -0.607%.
In the case of `CCOP(=O)(Nc1ccccc1)OCC`, the inhibition is reported as inactive: -11.7%.
With `O=P(Nc1nc2ccc(Cl)cc2s1)(c1ccccc1)c1ccccc1` the inhibition was inactive: 17.2%.
In the case of `CC(=O)Nc1ccc([As](=O)(O)O)cc1`, the inhibition is reported as inactive: -28.4%.
In the case of `O=C(O)c1ccccc1[As](=O)(O)O`, the inhibition is reported as inactive: 14.1%.
For `O=C(NC(Sc1ccncn1)C(Cl)(Cl)Cl)c1ccccc1` (stereo unspecified), the inhibition was inactive: 24.6%.
`Cc1c2non([O-])c-2c(C)[n+](=O)[n+]1[O-]` was tested, and the inhibition was inactive: 14.2%.
In the case of `Oc1ccccc1CNc1ccccn1`, the inhibition is reported as inactive: 13.6%.
In the case of `Nc1cc(N)c2nonc2c1[N+](=O)[O-]`, the inhibition is reported as inactive: 19.9%.
`CC(C)CC(=O)NC(Sc1ccc(Cl)cc1)C(Cl)(Cl)Cl` (stereo unspecified) was tested, and the inhibition was inactive: -23.1%.
For `CN1CCCC(OC(=O)C(c2ccccc2)c2ccccc2)C1` (stereo unspecified), the inhibition was inactive: -10.9%.
With `Clc1ccc(Cl)c(NC2=NCC(CBr)S2)c1` (stereo unspecified) the inhibition was inactive: -1.25%.
For `Cc1ccc(OP(=O)(Nc2nccs2)Oc2ccc(C)cc2)cc1`, the inhibition was inactive: 11.8%.
With `COc1ccccc1OP(=O)(Nc1ccc(C)cn1)Oc1ccccc1OC` the inhibition was inactive: 27.1%.
For `Cc1ccc(N/C(=N/P(=O)(N2CCOCC2)N2CCOCC2)N2CCOCC2)cc1`, the inhibition was inactive: 20.5%.
`CN(C(=O)Cc1ccc(Cl)c(Cl)c1)[C@H]1CCCC[C@H]1N1CCCC1` was tested, and the inhibition was inactive: 17.1%.
For `NC(=O)c1cc([N+](=O)[O-])cc([N+](=O)[O-])c1N`, the inhibition was inactive: 13.7%.
